This passage reports Ki and inhibition results from patent publication US20040039014A1, “Methods and compounds for treating depression and other disorders” (NPS Pharmaceuticals, Inc., priority 1998, published 2004).

Sequences of proteins named here, by UniProt entry; tags and fusion partners are left off. Residues count along the entry.
UniProt Q63380, 1-617: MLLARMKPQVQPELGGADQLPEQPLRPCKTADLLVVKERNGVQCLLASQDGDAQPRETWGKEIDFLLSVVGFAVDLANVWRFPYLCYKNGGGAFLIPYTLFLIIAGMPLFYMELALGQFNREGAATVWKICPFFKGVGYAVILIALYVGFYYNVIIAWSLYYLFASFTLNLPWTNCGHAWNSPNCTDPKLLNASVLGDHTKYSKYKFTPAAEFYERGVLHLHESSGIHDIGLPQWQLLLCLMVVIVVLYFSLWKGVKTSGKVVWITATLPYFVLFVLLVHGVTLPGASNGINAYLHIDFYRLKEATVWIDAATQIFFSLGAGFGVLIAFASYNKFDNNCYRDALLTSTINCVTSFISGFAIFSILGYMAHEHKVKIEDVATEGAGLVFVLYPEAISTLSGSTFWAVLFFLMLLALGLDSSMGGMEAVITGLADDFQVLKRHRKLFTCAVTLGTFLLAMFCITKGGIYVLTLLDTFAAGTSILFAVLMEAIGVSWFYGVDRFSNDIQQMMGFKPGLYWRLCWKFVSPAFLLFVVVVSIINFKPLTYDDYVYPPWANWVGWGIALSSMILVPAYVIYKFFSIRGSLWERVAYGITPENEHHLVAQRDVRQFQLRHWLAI
UniProt P31652, whole entry: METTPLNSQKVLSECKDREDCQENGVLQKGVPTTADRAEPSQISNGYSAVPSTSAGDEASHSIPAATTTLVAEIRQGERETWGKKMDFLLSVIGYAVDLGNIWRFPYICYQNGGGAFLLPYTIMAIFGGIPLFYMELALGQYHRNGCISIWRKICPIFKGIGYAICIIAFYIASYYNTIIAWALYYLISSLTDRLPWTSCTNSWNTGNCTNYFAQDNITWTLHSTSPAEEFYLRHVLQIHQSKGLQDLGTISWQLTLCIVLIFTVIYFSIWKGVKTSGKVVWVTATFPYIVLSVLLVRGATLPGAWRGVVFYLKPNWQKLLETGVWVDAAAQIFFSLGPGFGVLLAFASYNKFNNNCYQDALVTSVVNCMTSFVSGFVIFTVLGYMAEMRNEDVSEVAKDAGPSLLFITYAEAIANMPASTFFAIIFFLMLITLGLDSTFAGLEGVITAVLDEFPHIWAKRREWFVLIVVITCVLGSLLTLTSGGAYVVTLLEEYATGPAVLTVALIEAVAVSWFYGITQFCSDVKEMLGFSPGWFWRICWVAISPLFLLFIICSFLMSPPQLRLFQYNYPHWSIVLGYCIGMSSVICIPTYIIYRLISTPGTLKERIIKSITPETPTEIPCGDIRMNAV

The structures appear in SMILES notation.

The target in experiment [1] is T1, norepinephrine transporter site (Rattus norvegicus, UniProt Q63380).
T1 construct: Rat forebrain membranes were incubated with 1.0 nM; tissue NovaScreen (performed the assay); host or cells: rat forebrain membranes
Description: Norepinephrine reuptake inhibition assay ([3H]nisoxetine binding, rat forebrain membranes). The conditions noted are these: read-out: NE Uptake Ki.

Experiment [2] deals with T2, serotonin transporter site (Rattus norvegicus, UniProt P31652).
T2 construct: Rat forebrain membranes were incubated with 0.7 nM; tissue NovaScreen (performed the assay); host or cells: rat forebrain membranes
Description: Serotonin reuptake inhibition assay ([3H]citalopram binding, rat forebrain membranes). The conditions noted are these: Table II, read-out: 5-HT Uptake mean % inhibition.

By Ki is commonly meant the dissociation constant of the complex between target and ligand, obtained from inhibition or displacement. For the molecule `NCC[C@@H](Oc1cccc(F)c1)c1ccccc1` [Compound 185, (R)-3-(3-Fluorophenoxy)-3-phenylpropylamine], the Ki in experiment [1] came to 858 nM. Still for that read-out and setting: under `NCC[C@H](Oc1cccc(F)c1)c1ccccc1` [Compound 186] stands 136 nM. Usually inhibition stands for the drop in the measured response relative to a control, in per cent. As for `Fc1ccc([C@@H]2CCNC[C@H]2COc2ccc3c(c2)OCO3)cc1` [Paroxetine, reference compound], in experiment [2] (@ 100 nM (top number)), the inhibition at 0.1 µM was more than 80%. For the same molecule, in experiment [2] (@ 10.0 μM (bottom number)), the inhibition at 10 µM was 98%.
